From patent publication US7452997B2 (priority 2004, dated 2008)

By UniProt entry, the sequences of proteins in these tests, tags left out.
UniProt P21554, whole entry: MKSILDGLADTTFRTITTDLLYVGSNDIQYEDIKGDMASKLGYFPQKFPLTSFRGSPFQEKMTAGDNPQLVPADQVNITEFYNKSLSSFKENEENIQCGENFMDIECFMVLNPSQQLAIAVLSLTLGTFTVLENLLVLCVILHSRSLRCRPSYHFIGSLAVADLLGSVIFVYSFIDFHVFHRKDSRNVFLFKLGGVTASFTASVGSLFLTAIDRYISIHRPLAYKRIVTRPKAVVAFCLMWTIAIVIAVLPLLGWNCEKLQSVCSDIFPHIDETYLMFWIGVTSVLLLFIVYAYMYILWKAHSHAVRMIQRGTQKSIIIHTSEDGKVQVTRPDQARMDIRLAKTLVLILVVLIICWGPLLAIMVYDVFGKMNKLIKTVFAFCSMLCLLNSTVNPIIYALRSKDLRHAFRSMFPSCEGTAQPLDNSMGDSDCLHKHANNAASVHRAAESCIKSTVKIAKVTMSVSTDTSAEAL
UniProt P34972, whole entry: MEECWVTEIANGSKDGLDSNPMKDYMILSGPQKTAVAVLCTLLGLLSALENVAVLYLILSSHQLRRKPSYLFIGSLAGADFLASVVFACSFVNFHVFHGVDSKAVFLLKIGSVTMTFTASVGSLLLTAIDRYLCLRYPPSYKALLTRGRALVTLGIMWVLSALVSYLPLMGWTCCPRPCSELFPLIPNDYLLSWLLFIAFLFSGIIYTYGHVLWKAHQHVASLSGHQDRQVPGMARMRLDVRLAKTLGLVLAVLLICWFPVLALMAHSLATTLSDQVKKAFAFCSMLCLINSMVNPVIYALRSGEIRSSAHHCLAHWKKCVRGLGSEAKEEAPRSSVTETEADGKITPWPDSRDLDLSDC

What follows are molecules tested against T1, human CB1 receptor (Homo sapiens, UniProt P21554) (assay: Functional cell-based assay, CB1 receptor mediated change in CRE β-gal expression (agonist / inverse agonist)). Conditions: read-out: CB1 Receptor Functional Inverse Agonist EC50, SK-N-MC cells, forskolin.

For CCN(C(=O)c1nn(-c2ccc(OC)cc2)c2c1CCCC2)c1ccccc1OC, the EC50 was 1510 nM.

The molecules below were run against T1, human CB1 receptor (assay: not given). Conditions: read-out: Cannabinoid CB1 Receptor Binding IC50, SK-N-MC cell membranes, radioligand CP-55,940 0.2 nM.

In order of rising IC50:
1. CC12CCC(C1)C(C)(C)C2NC(=O)c1nn(C2CCCCC2)c2c1CCCC2 (centres unmarked)  108 nM
2. CC1(C)C2CCC(CNC(=O)c3nn(-c4cccc(F)c4)c4c3CCCC4)C1C2 (centres unmarked)  114 nM
3. CC1(C)C2CCC(CNC(=O)c3nn(-c4ccccc4F)c4c3CCCC4)C1C2 (centres unmarked)  168 nM
4. CC1(C)C2CCC(CNC(=O)c3nn(-c4ccc(F)cc4)c4c3CCCC4)C1C2 (centres unmarked)  216 nM
5. O=C(NN1CCCCCC1)c1nn(-c2ccc(Cl)cc2Cl)c2c1CCCC2  400 nM
6. O=C(NC1C2CCC(C2)C1C(=O)O)c1nn(C2CCCCC2)c2c1CCCC2 (centres unmarked)  22600 nM
7. Cc1ccc(S(=O)(=O)Nc2nn(C3CCCCC3)c3c2CCCC3)cc1  45000 nM

The molecules below were run against human CB2 receptor (Homo sapiens, UniProt P34972) (assay: Binding assay, cannabinoid CB2 receptor ([3H]-CP-55,940 displacement)). Conditions: read-out: Cannabinoid CB2 Receptor Binding IC50, SK-N-MC cell membranes, radioligand CP-55,940 0.2 nM.
Procedure: Binding Assay for CB1 or CB2 Agonists or Inverse Agonists
The human CB1 and CB2 receptors were stably expressed in SK-N-MC cells transfected with pcDNA3 CB-1 (human) or pcDNA3 CB-2 (human). The cells were grown in T-180 cell culture flasks under standard cell culture conditions at 37° C. in a 5% CO2 atmosphere. The cells were harvested by trysinization and homogenized in a homogenization buffer (10 mM Tris, 0.2 mM MgCl2, 5 mM KCl, with protease inhibitors aprotinin, leupeptin, pepstatin A and bacitracin) and centrifuged (2000 g). The supernatant was then centrifuged in 2M sucrose (31,300 g) to produce a semi-purified membrane pellet. The pellet was resuspended in homogenization and store at −80° C.
On the day of the assay, the pellet was thawed on ice and diluted in assay buffer (50 mM Tris-HCl, 5 mM MgCl2, 2.5 mM EDTA, 0.5 mg/mL fatty acid free bovine serum albumin, pH 7.5). The diluted membrane was added with buffer, test compound or standard and the radioligand [H]^3+-CP-55,940_(0.2 nM) to the wells of a 96-well polypropylene plate. Non-specific binding was measured in wells containing 10 uM WIN 55,212. The plate was covered and incubated for 90 minutes at 30° C. The contents were then aspirated onto a Packard UNIFILTER GF/C filter bottom plate prewet with 0.5% polyethyleneimine. The wells of the polypropylene plate were rinsed and aspirated seven times with a 0.9% saline-0.5% TWEEN 20 solution. The UNIFILTER plate was dried, a scintillation cocktail was added to each well and the counts representing binding were quantitated in a TOPCOUNT scintillation counter.
The IC50 binding values for compounds tested were calculated by linear regression and were obtained from studies in which varying compound concentrations were used.

In order of rising IC50:
1. CC12CCC(C1)C(C)(C)C2NC(=O)c1nn(C2CCCCC2)c2c1CCCC2 (centres unmarked)  3 nM
2. CC1(C)C2CCC(CNC(=O)c3nn(-c4ccccc4F)c4c3CCCC4)C1C2 (centres unmarked)  4.5 nM
3. CC1(C)C2CCC(CNC(=O)c3nn(-c4cccc(F)c4)c4c3CCCC4)C1C2 (centres unmarked)  13 nM
4. CC1(C)C2CCC(CNC(=O)c3nn(-c4ccc(F)cc4)c4c3CCCC4)C1C2 (centres unmarked)  30.9 nM
5. O=C(NN1CCCCCC1)c1nn(-c2ccc(Cl)cc2Cl)c2c1CCCC2  300 nM
6. CCN(C(=O)c1nn(-c2ccc(OC)cc2)c2c1CCCC2)c1ccccc1OC  1570 nM
7. Cc1ccc(S(=O)(=O)Nc2nn(C3CCCCC3)c3c2CCCC3)cc1  2700 nM
8. O=C(NC1C2CCC(C2)C1C(=O)O)c1nn(C2CCCCC2)c2c1CCCC2 (centres unmarked)  4880 nM
9. OCC1C2CCC(C2)C1NCc1nn(C2CCCCC2)c2c1CCCC2 (centres unmarked)  9410 nM
